From publication PMC7083837 (2020)

The chains behind the UniProt entries cited, without tags or fusion partners.
UniProt P31645, whole entry: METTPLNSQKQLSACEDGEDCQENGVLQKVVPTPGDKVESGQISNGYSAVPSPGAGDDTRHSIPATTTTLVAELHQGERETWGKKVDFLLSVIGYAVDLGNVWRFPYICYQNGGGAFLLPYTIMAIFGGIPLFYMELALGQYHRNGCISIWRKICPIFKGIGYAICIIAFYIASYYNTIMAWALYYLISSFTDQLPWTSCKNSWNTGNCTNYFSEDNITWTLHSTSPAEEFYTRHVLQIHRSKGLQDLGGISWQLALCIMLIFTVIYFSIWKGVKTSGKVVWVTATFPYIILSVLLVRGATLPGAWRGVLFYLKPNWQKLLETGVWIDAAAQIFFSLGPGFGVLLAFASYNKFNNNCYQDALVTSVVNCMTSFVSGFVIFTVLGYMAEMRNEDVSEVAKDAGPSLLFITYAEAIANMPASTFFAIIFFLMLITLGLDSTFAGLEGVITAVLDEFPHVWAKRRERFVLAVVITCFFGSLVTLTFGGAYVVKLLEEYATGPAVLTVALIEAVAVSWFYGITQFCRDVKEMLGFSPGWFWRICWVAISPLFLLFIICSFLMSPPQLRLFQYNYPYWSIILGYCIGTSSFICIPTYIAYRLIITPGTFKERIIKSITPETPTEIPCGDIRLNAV

Molecular target: SERT WT (Homo sapiens, UniProt P31645)
Experiment: [3H]5-HT uptake in intact COS-7 cells
Settings: IMI 4 nM, Lu AF60097 27 nM, alone or together

SMILES: CN(C)CCCN1c2ccccc2CCc2ccccc21 [imipramine, reference compound]
- [^3H]5-HT uptake (in % of buffer/control): 89.3 ± 0.8%
